# Tests used:
# Homo sapiens [1] = species on record: Homo sapiens; test: Selectivity index, ratio of Ki for human kallikrein to Ki for human activated Factor X
# Homo sapiens [2] = species on record: Homo sapiens; test: Selectivity index, ratio of Ki for human trypsin to Ki for human activated Factor X
# Homo sapiens [3] = species on record: Homo sapiens; test: Selectivity index, ratio of Ki for human activated Factor XI to Ki for human activated Factor X
# Homo sapiens [4] = species on record: Homo sapiens; test: Selectivity index, ratio of Ki for human tPA to Ki for human activated Factor X
# Homo sapiens [5] = species on record: Homo sapiens; test: Selectivity index, ratio of Ki for human uPA to Ki for human activated Factor X
# Homo sapiens [6] = species on record: Homo sapiens; test: Selectivity index, ratio of Ki for human activated Factor VII to Ki for human activated Factor X
# Homo sapiens [7] = species on record: Homo sapiens; test: Selectivity index, ratio of Ki for human activated Factor XII to Ki for human activated Factor X
# Homo sapiens [8] = species on record: Homo sapiens; test: Selectivity index, ratio of Ki for human activated Factor IX to Ki for human activated Factor X
# Homo sapiens [9] = species on record: Homo sapiens; test: Selectivity index, ratio of Ki for human chymotrypsin to Ki for human activated Factor X
Compound,Ratio Ki (Homo sapiens [1]),Ratio Ki (Homo sapiens [2]),Ratio Ki (Homo sapiens [3]),Ratio Ki (Homo sapiens [4]),Ratio Ki (Homo sapiens [5]),Ratio Ki (Homo sapiens [6]),Ratio Ki (Homo sapiens [7]),Ratio Ki (Homo sapiens [8]),Ratio Ki (Homo sapiens [9])
CCOC(=O)[C@]1(C)CCC[C@@]2(C)[C@@H]3CC[C@@]4(C)C[C@]3(CC[C@@H]21)C/C4=N\OCC1(C)COC1,< 20,< 20,,,,,,,
CCOC(=O)[C@]1(C)CCC[C@@]2(C)[C@@H]3CC[C@@]4(C)C[C@]3(CC[C@@H]21)C/C4=N\OCc1ccsc1,80 to 300,80 to 300,80 to 300,80 to 300,80 to 300,> 500,> 500,> 500,> 500

# From ChEMBL document CHEMBL4311982, “Discovery of novel, potent, isosteviol-based antithrombotic agents” (Eur J Med Chem, 2019)
